Legend:
[1] = molecular target: pp32 (32 kDa murine nuclear phosphoprotein from A20 cells) (murine) (UniProt O35381)
[2] = molecular target: pp32, dephosphorylated (murine) (UniProt O35381)
[3] = molecular target: pp35 (35 kDa murine nuclear phosphoprotein purified from A20 cells) (murine)
[4] = molecular target: pp35, dephosphorylated (murine)

Measured: 32P incorporation (stoichiometry of phosphorylation)

catalytic subunit of cAMP-dependent protein kinase from bovine heart (Sigma) (from UniProt P00517) (enzyme)
< 0.02 mol/mol: all assays above
